Patent publication US20190298846A1, “CELL TARGETING CONJUGATES” (LinXis B.V., priority 2016, published 2019)
pIC50: −log10 of the molar value.

Legend:
[1] = system: glutaraldehyde-fixed SKOV cells; assay: Binding assay (immunoreactivity, Lindmo); conditions: after conjugation and labelling with 89Zr; comparison of both conjugates
Experimental: After overnight incubation at 4° C., the cell suspension was centrifuged and the specific binding calculated as the ratio of cell-bound radioactivity to the total amount of radioactivity in the assay. This was corrected for nonspecific binding, as determined with a 500-fold excess of nonradioactive trastuzumab. All binding assays were performed in triplicate.

NCI-N87 tumors = assay: In vivo therapy study, NCI-N87 xenografts; design: species or system nude mice; conditions: single bolus injection 15 mg/kg
Experimental: (§1) Body weight was measured three times per week and MTD was reached when weight loss was >10% compared with the control mice. […] For this purpose, seven groups of 8 or 9 mice with established NCI-N87 or JIMT-1 xenografts in both flanks were used. […] All mice received an i.p. bolus injection. In the study with the NCI-N87 tumors, Group 1 was the control group and received 100 μL of saline solution. […] In the study with the JIMT-1 tumors, Group 1 was the control group and received 100 μL of saline solution. […] Body weight and tumor volume were measured three times per week up to 4 months after end of treatment.

MDA-MB-231 = assay: In vitro cell viability assay ([…] BLUE); type: cell-based; conditions: MDA-MB-231, HER2-negative
Experimental: (§2) BLUE® Assay (Promega). Before starting the assay, the AF-Lx and AF-Mal were quenched by incubation the compounds with 1 mol equiv. thiourea (2 hours, 37° C.) and n-acetyl-cysteine (30 minutes, 0° C.), respectively. The cells were trypsinized and plated in 96-well, flat-bottomed, tissue culture plates at day 0. On day 1, from the above mentioned compounds serial dilution series (9×4-fold dilutions) were made starting from 10 or 1000 nM (depending on type of cells and compounds) and added to the cells (in case of ADCs, concentration of the mAb was used). On day 5, the […] BLUE® reagent was added and incubated for 2 hours at 37° C., and viable cells were measured with a TeCan plate reader (Tecan Group Ltd.) at 560EX/590EM nm. […] The data were analyzed with Graphpad Prism 5 software.

SK-BR-3 = assay: In vitro cell viability assay ([…] BLUE); type: cell-based
Experimental: as §2

SKOV-3 = assay: In vitro cell viability assay ([…] BLUE); type: cell-based
Experimental: as §2

BT-474 = assay: In vitro cell viability assay ([…] BLUE); type: cell-based
Experimental: as §2

NCI-N87 = assay: In vitro cell viability assay ([…] BLUE); type: cell-based; conditions: concentration of the mAb for ADCs, day 5 readout
Experimental: as §2

JIMT-1 = assay: In vitro cell viability assay ([…] BLUE); type: cell-based; conditions: JIMT-1, T-DM1-resistant
Experimental: as §2

JIMT-1 tumors = assay: In vivo therapy study, JIMT-1 xenografts; design: species or system nude mice; conditions: for mice that survived the study: 15 mg/kg, day 125; for tumor growth response, in words: single bolus injection (15 mg/kg; AF conjugates 15 and 30 mg/kg), follow-up to day 125
Experimental: as §1

Substance | immunoreactive fraction after radiolabeling [1] | time at which tumors started regrowth (NCI-N87 tumors) [days] | pIC50 (MDA-MB-231) | pIC50 (SK-BR-3) | pIC50 (SKOV-3) | pIC50 (BT-474) | pIC50 (NCI-N87) | pIC50 (JIMT-1) | mice that survived the study (JIMT-1 tumors) | tumor growth response, in words (JIMT-1 tumors) | tumor growth response, in words (NCI-N87 tumors; follow-up to day 125)
^89Zr-DFO-trastuzumab | similar |  |  |  |  |  |  |  |  |  | 
AF-Mal-trastuzumab |  | 60 | < 6.40 | 10.42 | 10.44 | 9.71 | 9.89 | 10.11 | 5 out of 9 |  | 
AF-Lx-trastuzumab |  |  | < 6.40 | 10.85 | 10.70 | 9.79 | 9.87 | 10.55 | 7 of the 9 | regressed completely and no regrowth was observed up to end of the experiment at day 125 | 
trastuzumab: mAb obtained from the hospital pharmacy |  |  |  |  |  |  |  |  |  | minimal growth delay | only a delay in growth
^89Zr-DFO-Lx-trastuzumab | similar |  |  |  |  |  |  |  |  |  | 
